The values below come from PubChem BioAssay AID630 (Emory University Molecular Libraries Screening Center, 2007).

The chains behind the UniProt entries cited, without tags or fusion partners.
UniProt P84022, whole entry: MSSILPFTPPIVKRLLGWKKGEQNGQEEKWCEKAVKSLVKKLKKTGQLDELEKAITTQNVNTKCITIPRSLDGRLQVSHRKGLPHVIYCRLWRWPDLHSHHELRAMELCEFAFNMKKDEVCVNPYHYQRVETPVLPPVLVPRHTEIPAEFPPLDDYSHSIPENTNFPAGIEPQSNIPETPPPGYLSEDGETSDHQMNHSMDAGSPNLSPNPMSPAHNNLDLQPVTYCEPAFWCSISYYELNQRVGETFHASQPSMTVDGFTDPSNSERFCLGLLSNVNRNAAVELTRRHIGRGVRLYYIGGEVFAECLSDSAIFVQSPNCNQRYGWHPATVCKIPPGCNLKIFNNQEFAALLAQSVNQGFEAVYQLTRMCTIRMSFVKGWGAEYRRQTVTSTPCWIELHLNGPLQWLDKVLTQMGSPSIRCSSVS

The list shows a part of the results, in another mix than the full data. The source made the active and inactive calls.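 The calls were made as follows: active = compounds that reduce the energy-transfer binding signal between the protein and its labelled peptide by more than half; inactive = the rest.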

The experiment concerns the target Mothers against decapentaplegic homolog 3 (Homo sapiens) (UniProt P84022). The experiment can be described thus: blockers of Smad3 binding to FoxH1 – biochemical, TR-FRET, primary screen (AID 630).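 Also: 0% = Smad3 plus labelled peptide maximal FRET and 100% = peptide-only background.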 As to conditions: TR-FRET Smad3/Dy647-FoxH1 peptide binding, europium anti-His; at 25 µM; hits give high values.
The term inhibition denotes the drop in the measured response relative to a control, in per cent. For the compound `Cc1cc(C)cc(OP(C)(=O)Nc2ccccn2)c1` (stereo unspecified), the inhibition was inactive: 7.03%. `Cc1ccc(C)c(NP(C)(=O)Oc2ccccc2)c1` (stereo unspecified): the inhibition was inactive: 4.47%.

`Cc1cc(C)cc(OP(C)(=O)Nc2ccc(C)cc2C)c1` (stereo unspecified): the inhibition was inactive: -0.19%. As to `COc1ccccc1OP(C)(=O)Nc1c(C)cccc1C` (stereo unspecified), the inhibition is inactive: 8.87%. Under `Cc1nc2ccc3ccccc3c2s1.O=[N+]([O-])c1cc([N+](=O)[O-])c(O)c([N+](=O)[O-])c1` stands inactive: 19.4%; under `CP(=O)(Nc1ccccn1)Oc1ccc(Cl)cc1` (stereo unspecified), inactive: 2.03%.

Turning to `CCOP(C)(=S)SCC(=O)NC(C)C(=O)O` (stereo unspecified), the inhibition is inactive: 0.66%. Under `CP(=O)(NC(=O)Nc1ccccc1)Oc1ccccc1` (stereo unspecified) stands inactive: -15.5%.

Take `CP(=S)(Nn1cnnc1)Oc1ccccc1` (stereo unspecified): the inhibition is inactive: -4.74%.

With `N1=C(c2nnc(-c3nn[nH]n3)nn2)NNN1`, the inhibition was inactive: 1.1%. As for `COc1ccc(OP(C)(=O)Nc2cccc(F)c2)cc1` (stereo unspecified), the inhibition was inactive: 5.51%. Under `COc1ccccc1OP(C)(=O)Nc1ccc(C)cc1` (stereo unspecified) stands inactive: 1.8%; under `Cc1ccc(NP(C)(=O)Oc2ccccc2)c(C)c1` (stereo unspecified), inactive: 3.65%; under `CCc1ccc(OP(C)(=O)O)cc1`, inactive: -8.82%. As for `CP(=O)(Nc1ccccn1)Oc1ccccc1` (stereo unspecified), the inhibition is inactive: -5.97%. For `COc1ccccc1OP(C)(=O)Nc1ccc(C)cc1C` (stereo unspecified), the inhibition was inactive: -4.26%. Under `Cc1c(NP(C)(=O)Oc2ccc(C(C)C)cc2)c(=O)n(-c2ccccc2)n1C` (stereo unspecified) stands inactive: -16.4%; under `CN(C)CCOC(=O)C(O)(c1ccccc1)C1CCCC1` (stereo unspecified), inactive: -4.02%. Under `COc1ccc(OP(C)(=O)Nc2ccccn2)cc1` (stereo unspecified) stands inactive: -7.57%.

On to `[Au].[Au].c1ccc([PH+](c2ccccc2)c2ccccc2)cc1.c1ccc([PH+](c2ccccc2)c2ccccc2)cc1.n1n[n-]c(-c2nnn[n-]2)n1`, for which the inhibition is active: 75.4%. Under `Cc1nc2ccc3ccccc3c2o1.O=[N+]([O-])c1cc([N+](=O)[O-])c(O)c([N+](=O)[O-])c1` stands inactive: -3.55%; under `COc1ccccc1OP(C)(=O)Nc1ccc(C)c(C)c1` (stereo unspecified), inactive: 4.74%; under `CP(=O)(OC12CC3CC(CC(C3)C1)C2)OC12CC3CC(CC(C3)C1)C2`, inactive: 10.3%. On to `CP(=O)(Nc1ccc(Cl)cc1)Oc1ccc(F)cc1` (stereo unspecified), for which the inhibition is inactive: -10.2%. In the case of `CC(C)(C)c1ccc(OP(C)(=O)O)cc1`, the inhibition was inactive: 18.5%. Regarding `CP(=O)(Oc1ccccc1)N1CCOC1=O` (stereo unspecified), the inhibition is inactive: 5.27%.

As to `COc1ccccc1OP(C)(=O)Nc1c(C)n(C)n(-c2ccccc2)c1=O` (stereo unspecified), the inhibition was inactive: -3.48%. Next, `NNC(NN)NN.n1nc(-c2nn[nH]n2)n[nH]1`: inactive: 4.42%; `Cc1ccccc1NP(C)(=O)Nc1ccccc1C`: inactive: 15.2%; `CP(=O)(Nc1ccc2c(c1)OCCO2)Oc1ccccc1` (stereo unspecified): inactive: -17.1%. Consider `CCOP(C)(=S)SCC(=O)NC(C)(CC)C(=O)O` (stereo unspecified), for which the inhibition is inactive: -3.12%. Consider `CN(C)CCOC(=O)C(O)(c1ccccc1)C1CCCCC1` (stereo unspecified), for which the inhibition was inactive: 1.4%.

Take `CP(=O)(Nc1ccccc1)Oc1ccc(F)cc1` (stereo unspecified): the inhibition is inactive: -3.74%.

Turning to `CCN(CC)CCCOC(=O)C(O)(c1ccccc1)C1CCCCC1` (stereo unspecified), the inhibition is inactive: -2.73%.

Take `CP(=O)(Nc1ccccc1F)Oc1ccccc1` (stereo unspecified): the inhibition was inactive: 14.2%. Under `CN1CC[C@@H](OC(=O)[C@](O)(c2ccccc2)C2CCCC2)C1` stands inactive: 47.8%.
